# Reference: PubChem BioAssay AID588456 (National Center for Advancing Translational Sciences (NCATS), 2011)
# By UniProt entry, the sequences of proteins in these tests, tags left out.
# UniProt O89049, whole entry, looked up: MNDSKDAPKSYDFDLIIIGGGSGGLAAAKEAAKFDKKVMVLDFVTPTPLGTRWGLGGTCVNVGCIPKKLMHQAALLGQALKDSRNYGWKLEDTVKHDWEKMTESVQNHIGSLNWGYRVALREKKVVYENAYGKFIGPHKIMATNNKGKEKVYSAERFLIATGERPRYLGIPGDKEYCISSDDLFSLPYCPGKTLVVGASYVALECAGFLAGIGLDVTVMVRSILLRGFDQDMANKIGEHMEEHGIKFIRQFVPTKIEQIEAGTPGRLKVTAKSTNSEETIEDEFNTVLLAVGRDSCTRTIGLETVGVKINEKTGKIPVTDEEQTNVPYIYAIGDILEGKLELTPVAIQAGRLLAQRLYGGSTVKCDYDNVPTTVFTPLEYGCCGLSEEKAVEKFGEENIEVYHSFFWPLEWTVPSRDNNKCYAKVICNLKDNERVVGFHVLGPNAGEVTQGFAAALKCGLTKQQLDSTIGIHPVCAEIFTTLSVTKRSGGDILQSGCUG
# The list shows a part of the results, in another mix than the full data. Activity calls are given as the source filed them. Calls follow the shape of the dose curve; as a rule, active = well fitted inhibition curve with a large enough effect; inconclusive = small, poorly fitted or top-dose-only effect; inactive = no such curve, though single readings can be large or run the other way.
# Target: Thioredoxin reductase 1, cytoplasmic (Rattus norvegicus) (UniProt O89049)
# Test: qHTS Assay for Substrates of Mammalian Selenoprotein Thioredoxin Reductase 1 (TrxR1): qHTS; also: nearly all actives have a fitted effect of over 50% in size
# Conditions: purified TrxR1 substrate turnover, NADPH consumption readout
# [1] = at 114 µM (top of the series) unless noted
# % is scaled to controls: 0 for no effect and ±100 for the full control effect.
smiles,measurement,setting,value
Clc1n[nH]nc1-c1nn[nH][15n]1,"activity change, negative = substrate turnover",[1],inactive: 2.89%
CC(C)(C)C(=O)NC(Sc1ncccn1)C(Cl)(Cl)Cl (stereo not given),"activity change, negative = substrate turnover",[1],inactive: 2.92%
CCOP(=O)(Nc1ccc(C)cn1)OCC,"activity change, negative = substrate turnover",[1],inactive: 25.7% [at 57.1 µM]
CN(CCCl)Cc1cc(Cl)c(NC2=NCCN2)c(Cl)c1,"activity change, negative = substrate turnover",at 57.1 µM (top of the series),inactive: 3.39%
same,"activity change, negative = substrate turnover",at 114 µM (top of the series),inactive: 2.99%
O=P1(Nc2ccccn2)COc2ccccc2OC1,"activity change, negative = substrate turnover",[1],inactive: 6.55% [at 57.1 µM]
CCC1=CC2Cc3nc4ccc(Cl)cc4c(N)c3C(C1)C2 (stereo not given),"activity change, negative = substrate turnover",[1],inactive: 5.18%
CCOP(=O)(NC(=NC(C)c1ccccc1)NC(C)c1ccccc1)OCC (stereo not given),"activity change, negative = substrate turnover",[1],inactive: 2.76%
CC1(CBr)Cn2c(nc3ccccc3c2=O)S1 (stereo not given),"activity change, negative = substrate turnover",[1],inactive: 0.0086%
CC(C)/C=N\N=C(\N)N[N+](=O)[O-],"activity change, negative = substrate turnover",[1],inactive: -13.9% [at 57.1 µM]
CN(C(=O)Cc1ccc(Cl)c(Cl)c1)[C@@H]1CCCC[C@H]1N1CCCC1,"activity change, negative = substrate turnover",[1],inactive: 1.19%
COc1ccccc1CNC(=O)COC(=O)C(O)(c1ccccc1)c1ccccc1,"activity change, negative = substrate turnover",[1],inactive: 0.586%
O=C(/C=C/c1ccccc1)OC1CN2CCC1CC2 (stereo not given),"activity change, negative = substrate turnover",[1],inactive: 3.91% [at 57.1 µM]
CCCC1OP(=O)(Nc2ccccc2)OCC1CC (stereo not given),"activity change, negative = substrate turnover",[1],inactive: 8.28%
CN(C)C1(CNC(=O)c2ccc(S(C)(=O)=O)cc2)CCCCC1,"activity change, negative = substrate turnover",[1],inactive: 4.15%
Cc1nn(-c2ccccc2)c2c1P(=O)(N1CCOCC1)N(C)C(c1ccccc1)=N2 (stereo not given),"activity change, negative = substrate turnover",[1],inactive: 9.24% [at 57.1 µM]
CC1CCC(C(C)C)C(OP(=O)(Nc2ccccn2)c2ccccc2)C1 (stereo not given),"activity change, negative = substrate turnover",[1],inactive: -4.67%
Cc1ccc(C(=O)OC2CN3CCC2CC3)cc1 (stereo not given),"activity change, negative = substrate turnover",[1],inactive: 4.72%
COc1cc([N+](=O)[O-])ccc1[N+](=O)[O-],"activity change, negative = substrate turnover",[1],inactive: -0.161%
O=[As](O)(c1cccs1)c1cccs1,"activity change, negative = substrate turnover",[1],inactive: 3.76% [at 57.1 µM]
Cc1ccc(OCC(=O)OC2CN3CCC2CC3)cc1 (stereo not given),"activity change, negative = substrate turnover",[1],inactive: 4.72%
O=P1(Nc2ccc(Br)cn2)COc2ccccc2OC1,"activity change, negative = substrate turnover",[1],inactive: 1.67%
NS(=O)(=O)c1cccc(NC(=O)COC(=O)C(O)(c2ccccc2)c2ccccc2)c1,"activity change, negative = substrate turnover",[1],inactive: 3.37%
Nc1cccc([As](=O)(O)c2ccccc2)c1,"activity change, negative = substrate turnover",[1],inactive: 7.79%
O=P1(Nc2ncccn2)COc2ccccc2OC1,"activity change, negative = substrate turnover",[1],inactive: 10.4% [at 57.1 µM]
Nc1ccccc1[As](=O)(O)c1ccccc1,"activity change, negative = substrate turnover",[1],inactive: 0.59%
O=C(O)COc1ccc([As](=O)(O)O)cc1[N+](=O)[O-],"activity change, negative = substrate turnover",[1],inactive: -5.11%
CS(=O)(=O)c1cc([N+](=O)[O-])c2no[n+]([O-])c2c1,"activity change, negative = substrate turnover",[1],inactive: -8.37%
CCOP1(=S)c2c(C)nn(CCC#N)c2N=C(c2ccccc2F)N1C (stereo not given),"activity change, negative = substrate turnover",[1],inactive: 10.8% [at 57.1 µM]
O=P(Nc1nccs1)(Oc1ccccc1)Oc1ccccc1,"activity change, negative = substrate turnover",[1],inactive: 3.34%
O=P(Nc1nccs1)(c1ccccc1)c1nc2ccccc2s1 (stereo not given),"activity change, negative = substrate turnover",[1],inactive: 5.69%
O=[N+]([O-])c1ccc2c(c1)nnn2O,"activity change, negative = substrate turnover",[1],inactive: -7.94%
CN(C)C(=O)c1cc([N+](=O)[O-])cc2c1-c1c(cc([N+](=O)[O-])cc1[N+](=O)[O-])C2=O,"activity change, negative = substrate turnover",[1],inactive: -16.1%
CN(C(=O)Cc1ccc(Cl)c(Cl)c1)[C@H]1CC[C@@]2(CCCO2)C[C@@H]1N1CCCC1,"activity change, negative = substrate turnover",[1],inactive: 0.234%
N#CCCN(C(=O)COC(=O)C(O)(c1ccccc1)c1ccccc1)c1ccc(F)cc1,"activity change, negative = substrate turnover",[1],inactive: -1.83%
CN(C(=O)Cc1ccccc1)[C@@H]1CC[C@]2(CCCO2)C[C@H]1N1CCCC1,"activity change, negative = substrate turnover",at 57.1 µM (top of the series),inactive: 16.3%
same,"activity change, negative = substrate turnover",at 114 µM (top of the series),inactive: 6.07%
CCOP1(=S)c2c(C)nn(CCC#N)c2N=C(c2ccc(F)cc2)N1C (stereo not given),"activity change, negative = substrate turnover",[1],inactive: 2.35%
NC(=O)Nc1ccc([As](=O)(O)O)cc1,"activity change, negative = substrate turnover",[1],inactive: -0.401%
Cc1cccc(OCC(=O)OC2CN3CCC2CC3)c1 (stereo not given),"activity change, negative = substrate turnover",[1],inactive: 5.68% [at 57.1 µM]
O=[As](O)(c1cccc(O)c1)c1cccc(O)c1,"activity change, negative = substrate turnover",[1],inactive: 1.23%
O=[As](O)(O)c1cccnc1,"activity change, negative = substrate turnover",[1],inactive: 12.2%
COc1cc(C(=O)NCC2(N3CCOCC3)CCCCC2)cc(Cl)c1OC(C)C,"activity change, negative = substrate turnover",[1],inactive: 4.66% [at 57.1 µM]
CS(=O)(=O)c1ccc(Cl)c(NC(=O)COC(=O)C(O)(c2ccccc2)c2ccccc2)c1,"activity change, negative = substrate turnover",[1],inactive: -10.4%
O=C(OC1CN2CCC1CC2)c1ccc(Cl)cc1 (stereo not given),"activity change, negative = substrate turnover",[1],inactive: -3.72%
COc1cc(C2NCCC3(OCCO3)C2(C)C)cc(OC)c1OC (stereo not given),"activity change, negative = substrate turnover",[1],inactive: -3.91%
CCOP(=O)(Nc1cccc2ccccc12)OCC,"activity change, negative = substrate turnover",[1],inactive: 19.7%
CCCOP(=S)(Nc1nc(N)cc(=O)[nH]1)OCCC,"activity change, negative = substrate turnover",[1],inactive: 0.358% [at 57.1 µM]
Nc1cccc2c([As](=O)(O)O)cccc12,"activity change, negative = substrate turnover",[1],inactive: -2.48% [at 57.1 µM]
Cc1ccc(NCCc2c([N+](=O)[O-])cc([N+](=O)[O-])cc2[N+](=O)[O-])cc1,"activity change, negative = substrate turnover",[1],inactive: -7.41%
COc1ccc2nc(NP(=O)(c3ccccc3)c3ccccc3)sc2c1,"activity change, negative = substrate turnover",[1],inactive: 5.3%
COc1cc(I)ccc1[As](=O)(O)O,"activity change, negative = substrate turnover",[1],inactive: 3.44%
O=P1(N(CCCl)CCCl)Nc2ccccc2N1,"activity change, negative = substrate turnover",[1],inactive: 11.3% [at 57.1 µM]
O=P1(N(CCCl)CCCl)OCCCN1CCCl (stereo not given),"activity change, negative = substrate turnover",[1],inactive: -6.02%
O=C(OC1CN2CCC1CC2)C12CC3CC(CC(C3)C1)C2 (stereo not given),"activity change, negative = substrate turnover",[1],inactive: 6.18%
Cc1cc(=O)[nH]c(N[N+](=O)[O-])n1,"activity change, negative = substrate turnover",[1],inactive: -5.23%
Cc1c2c(nc3ccccc13)SC(C(Cl)Cl)C2 (stereo not given),"activity change, negative = substrate turnover",[1],inactive: 3.18%
COc1ccc(N/C(=N/P(=O)(N2CCOCC2)N2CCOCC2)N2CCOCC2)cc1,"activity change, negative = substrate turnover",[1],inactive: 8.13% [at 57.1 µM]
O=[N+]([O-])c1cc(Oc2ccc([N+](=O)[O-])cc2C(F)(F)F)cc([N+](=O)[O-])c1,"activity change, negative = substrate turnover",[1],inactive: -2.26%
Cc1ccc2nc3c(c(C)c2c1)CC(C(Cl)Cl)S3 (stereo not given),"activity change, negative = substrate turnover",[1],inactive: -21.5% [at 57.1 µM]
Cc1ccc(OP(=O)(Nc2ccc([N+](=O)[O-])cn2)Oc2ccc(C)cc2)cc1,"activity change, negative = substrate turnover",[1],inactive: -1.95%
ClCCN(CCCl)c1ccc(CC2C=CC=C2)cc1,"activity change, negative = substrate turnover",[1],inactive: 0.109%
C[As](=O)(O)c1cccc(C(=O)O)c1,"activity change, negative = substrate turnover",[1],inactive: 26.5%
O=[As](O)(c1ccc(O)cc1)c1ccccc1O,"activity change, negative = substrate turnover",[1],inactive: 5.49%
O=[N+]([O-])c1ccc(-c2cc([N+](=O)[O-])c(O)c([N+](=O)[O-])c2)cc1,"activity change, negative = substrate turnover",[1],inactive: -23.2%
COc1cc(C(=O)NCC2(N3CCOCC3)CCCCC2)ccc1OCC(C)C,"activity change, negative = substrate turnover",[1],inactive: -12.8%
CC(C)NC(=O)NP(=O)(Oc1ccccc1)Oc1ccccc1,"activity change, negative = substrate turnover",[1],inactive: -2.15% [at 57.1 µM]
O=C(OC1CN2CCC1CC2)c1cccc2[nH]cnc12 (stereo not given),"activity change, negative = substrate turnover",[1],inactive: 12.3% [at 57.1 µM]
CCN(CC)C(=S)SC(NC=O)C(Cl)(Cl)Cl (stereo not given),"activity change, negative = substrate turnover",[1],inactive: 7.39% [at 57.1 µM]
O=[N+]([O-])c1cc([N+](=O)[O-])c(-c2ccn[nH]2)s1,"activity change, negative = substrate turnover",[1],inactive: -3.22%
COC(=O)C1(C)COP(=O)(N2CCCCCC2)OC1 (stereo not given),"activity change, negative = substrate turnover",[1],inactive: 3.17% [at 57.1 µM]
CC(C)c1ccc(OP(=O)(Nc2ccccn2)Oc2ccccc2F)cc1 (stereo not given),"activity change, negative = substrate turnover",[1],inactive: -0.0346%
ClCCSc1nnc(-c2cccnc2)o1,"activity change, negative = substrate turnover",[1],inactive: 8.63% [at 57.1 µM]
O=Cc1ccc(NCCCl)cc1,"activity change, negative = substrate turnover",[1],inactive: -7.72%
CCCCOc1ccc(C(=O)NCC2(N3CCCCC3)CCCCC2)cc1OC,"activity change, negative = substrate turnover",[1],inactive: -8.44%
Cc1cc(SC(NC(=O)c2ccccc2)C(Cl)(Cl)Cl)nc(C(C)C)n1 (stereo not given),"activity change, negative = substrate turnover",[1],inactive: -9.04%
CC1CCNP(=O)(N(CCCl)CCCl)O1 (stereo not given),"activity change, negative = substrate turnover",[1],inactive: 9.82% [at 57.1 µM]
CCOC(=O)Nc1ccc([As](=O)(O)O)c(O)c1,"activity change, negative = substrate turnover",[1],inactive: -6.26%
O=[N+]([O-])c1ccc(Nc2ccc(Oc3ccc([N+](=O)[O-])cc3[N+](=O)[O-])cc2)c([N+](=O)[O-])c1,"activity change, negative = substrate turnover",[1],inactive: 1.64% [at 2.29 µM]
O=P(Nc1ccccn1)(c1cccc2ccccc12)c1cccc2ccccc12,"activity change, negative = substrate turnover",[1],inactive: 1.37% [at 57.1 µM]
Cc1cc(SC(NC=O)C(Cl)(Cl)Cl)ncn1 (stereo not given),"activity change, negative = substrate turnover",[1],inactive: -6.05% [at 57.1 µM]
CCOC(=O)Nc1cccc([As](=O)(O)O)c1,"activity change, negative = substrate turnover",[1],inactive: -4.37%
O=C(COc1ccccc1)OC1CN2CCC1CC2 (stereo not given),"activity change, negative = substrate turnover",[1],inactive: -1.45% [at 57.1 µM]
O=C(Nc1ccncc1[N+](=O)[O-])c1ccc([N+](=O)[O-])cc1[N+](=O)[O-],"activity change, negative = substrate turnover",[1],inactive: -6.45%
COP1(=S)c2c(C)nn(CCC#N)c2N=C(c2ccc(F)cc2)N1C (stereo not given),"activity change, negative = substrate turnover",[1],inactive: 6.78%
CCOP(=O)(Nc1cccc2cccnc12)OCC,"activity change, negative = substrate turnover",[1],inactive: 3.85% [at 0.457 µM]
CCC(C)N(CC(C)C)C(=S)SC(NC(C)=O)C(Cl)(Cl)Cl (stereo not given),"activity change, negative = substrate turnover",[1],inactive: -9.48%
CCOC(=O)c1ccc(NC(=O)C(C)(CCl)SC)cc1 (stereo not given),"activity change, negative = substrate turnover",[1],inactive: 3.75%
O=C(OC1CN2CCC1CC2)c1cccc([N+](=O)[O-])c1 (stereo not given),"activity change, negative = substrate turnover",[1],inactive: 10.6% [at 57.1 µM]
O=[N+]([O-])c1cccc2n[nH]nc12,"activity change, negative = substrate turnover",[1],inactive: -4% [at 57.1 µM]
CC(=O)N1C2C3N(C(C)=O)C1C1N(C(C)=O)C(C(N1C(C)=O)N3C(C)=O)N2C(C)=O,"activity change, negative = substrate turnover",[1],inactive: 2.75%
Cc1ccc(NP(=O)(Oc2ccccc2)Oc2ccccc2)nc1,"activity change, negative = substrate turnover",[1],inactive: 8.81%
CCc1nc2c(n1)c1c(non1O)c1c2no[n+]1[O-],"activity change, negative = substrate turnover",[1],inactive: -15.2%
O=[N+]([O-])c1cc([N+](=O)[O-])c(CCNc2ccccc2)c([N+](=O)[O-])c1,"activity change, negative = substrate turnover",[1],inactive: 7.48% [at 57.1 µM]
COc1ccc(C2=NCC(CBr)S2)cc1 (stereo not given),"activity change, negative = substrate turnover",[1],inactive: 5.29% [at 57.1 µM]
